The target of assay [1] is Receptor-type tyrosine-protein kinase FLT3 (Homo sapiens, UniProt P36888, D835Y). As to the kind of experiment: Inhibition of FLT3 D835Y mutant expressed in human MV4-11 cells. It is filed as cell-based.
In assay [2] the target is Receptor-type tyrosine-protein kinase FLT3 (Homo sapiens, UniProt P36888). As to the kind of experiment: Inhibition of recombinant FLT3 using Poly (Glu,Tyr) as substrate after 2 hrs by luminescence assay.

SMILES strings stand for the structures.

As usually defined, the IC50 is the midpoint of a concentration-inhibition curve. In the case of `C1=C/COCc2cc(ccc2OCCN2CCCC2)Nc2nccc(n2)-c2cccc(c2)COC/1` (mixture of isomers) [PACRITINIB], the IC50 in assay [1] worked out at 6 nM; in assay [2], 22 nM.
